{"source": "patent US12295964B2", "about": "“Treating pain associated with chemotherapy-induced peripheral neuropathy” (MEDICON PHARMACEUTICALS, INC., priority 2021, dated 2025)", "test_system": "paclitaxel-induced CIPN in C57/BL/6J mice", "test": "Comparison with sulindac, lidocaine and pregabalin in paclitaxel CIPN, mechanical allodynia (PWT, von Frey)", "details": "pregabalin 10 mg/kg orally once, one hour before measurement", "data": [{"smiles": "CC(C)C[C@H](CN)CC(=O)O", "note": "[pregabalin]", "values": [{"measurement": "PWT, g Mean ± SEM", "result": "1.28 ± 0.10", "unit": "g"}]}]}
